In this experiment the target is TACE enzyme (Homo sapiens, UniProt P78536). Nature of the experiment: Enzymatic test of TACE inhibition (fluorescent substrate). Type of experiment: biochemical.
Where [1] appears, read: enzymatic test, substrate 40 μM, read-out: IC50 - TACE.
[2] abbreviates: selectivity table, read-out: IC50 TACE.

Sequences of proteins named here, by UniProt entry; tags and fusion partners are left off. Residues count along the entry.
UniProt P78536, 215-824 limits assumed: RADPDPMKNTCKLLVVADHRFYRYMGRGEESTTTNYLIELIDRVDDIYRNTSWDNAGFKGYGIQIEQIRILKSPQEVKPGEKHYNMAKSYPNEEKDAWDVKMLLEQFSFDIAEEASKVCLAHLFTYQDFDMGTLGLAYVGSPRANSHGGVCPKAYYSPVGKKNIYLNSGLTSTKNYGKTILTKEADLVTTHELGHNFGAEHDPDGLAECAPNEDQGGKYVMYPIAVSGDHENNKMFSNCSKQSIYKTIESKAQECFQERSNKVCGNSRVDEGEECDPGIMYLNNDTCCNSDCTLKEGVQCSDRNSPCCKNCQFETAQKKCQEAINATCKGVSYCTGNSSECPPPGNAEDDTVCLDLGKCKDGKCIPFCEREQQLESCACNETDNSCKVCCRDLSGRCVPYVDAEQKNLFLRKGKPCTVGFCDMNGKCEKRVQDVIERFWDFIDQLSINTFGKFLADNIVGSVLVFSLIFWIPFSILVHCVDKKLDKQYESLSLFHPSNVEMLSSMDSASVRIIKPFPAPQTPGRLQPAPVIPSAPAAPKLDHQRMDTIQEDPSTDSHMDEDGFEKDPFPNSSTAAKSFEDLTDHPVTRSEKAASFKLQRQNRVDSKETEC

As a reminder, the IC50 is the concentration needed to halve the response being measured.

Where two headings read alike, the source gives them in different places.

As to `Cc1cc(COc2ccc(C(=O)NC[C@@H](C(=O)NO)N3CCN(S(C)(=O)=O)CC3)cc2)c2ccccc2n1` [Example 14, N—[(S)-2-Hydroxycarbamoyl-2-(4-methane-sulphonylpiperazin-1-yl)ethyl]-4-(2-methylquinolin-4-ylmethoxy)benzamide], the IC50 by setting is: under setting [1], 35 nM; under setting [2], 35 nM.
On to `Cc1cc(COc2ccc(C(=O)NC[C@@H](C(=O)NO)N3CCN(S(C)(=O)=O)CC3)cc2)c2ccccc2n1.Cl.Cl` [Example 24, N—[(S)-2-Hydroxycarbamoyl-2-(4-methane-sulphonylpiperazin-1-yl)ethyl]-4-(2-methylquinolin-4-ylmethoxy)benzamide dihydrochloride], for which, under “read-out: IC50 - TACE, enzymatic test, substrate 40 μM, listed as Ex24, dihydrochloride”, the IC50 worked out at 88 nM.
As for `O=C(NCC(C(=O)NO)N1CCN(Cc2ccccc2)CC1)c1ccc(OCc2c(C(F)(F)F)nn3ccccc23)cc1` (centres unmarked) [Example 27, N-[2-(4-Benzylpiperazin-1-yl)-2-hydroxycarbamoylethyl]-4-(2-trifluoromethylpyrazolo[1,5-a]pyridin-3-ylmethoxy)benzamide], the IC50 by setting is: under setting [1], 81 nM; under setting [2], 81 nM.

For the origin of these results see patent US9115102B2, “N-[2-hydroxycarbamoyl-2-(piperazinyl) ethyl] benzamide compounds, their preparation and their use as TACE inhibitors” (GALDERMA RESEARCH & DEVELOPMENT, priority 2009, dated 2015).
